Test results published in patent US10927085B2, “1,2-naphthoquinone based derivative and method of preparing the same” (HUEN Co., Ltd., priority 2013, dated 2021).

Chains of the proteins cited; added tags and fusions are not shown.
UniProt P15559, whole entry, species assumed: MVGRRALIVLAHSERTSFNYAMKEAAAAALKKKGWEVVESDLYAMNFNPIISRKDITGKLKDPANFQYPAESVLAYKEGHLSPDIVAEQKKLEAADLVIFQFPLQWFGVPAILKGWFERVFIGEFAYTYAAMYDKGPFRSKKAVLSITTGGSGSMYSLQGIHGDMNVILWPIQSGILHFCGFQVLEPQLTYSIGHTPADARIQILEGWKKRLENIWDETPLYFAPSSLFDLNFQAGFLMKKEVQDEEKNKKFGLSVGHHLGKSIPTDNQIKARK

Experiments:
C57BL/6J Lep ob/ob mice = assay: Weight loss effects in obese mice (ob/ob); details: mouse, in vivo, po
Method: 6.5 week-old C57BL/6J Lep ob/ob mice having genetic obesity characteristics available from ORIENTBIO were prepared. Two mice were raised in each polycarbonate breeding cage (200 W×260 L×130H (mm), Three-shine) in which temperature was 22 to 24° C., relative humidity was 30 to 50%, illuminance was 150 to 300 lux, night and day were 12 hours, and exhaust was performed at 10 to 15 air changes per hour. As a feed, low fat diet (11.9 kcal % fat, 5053, Labdiet) manufactured by ORIENTBIO was used. The feed was contained in a feeder and free intake was allowed. As drinking water, water, which was contained in a 250 mL polycarbonate based bottle, purified through a filter and a sterilizer was used and free intake was allowed.
The Compounds According to Examples 1 and 2 synthesized in the present invention were orally administered to three C57BL/6J Lep ob/ob mice in an amount of 100 mg/kg, respectively, once every day for two weeks. For administration, a disposable syringe fitted with a sonde for oral administration was used and 10 ml/kg of the compound was orally administered into the stomach. As controls, three C57BL/6J Lep ob/ob mice were administered 0.1% SLS in an amount of 100 mg/kg in the same manner as described above. After administration, a time-dependent weight increase ratio was measured and results are illustrated in FIG. 1 below.
Weights of the experimental animals were measured immediately before administration of a test material and six times a week from an administration initiation day to a test termination day. Increased total weights were calculated by subtracting weights measured on an experiment initiation day from weights measured one day before an experiment termination day. Food intake amounts were calculated by measuring feed supply amounts and remaining amounts twice a week from an initiation day of test material administration to a test termination day for each individual.
Experiments were performed under the same conditions as in Experimental Example 3-1 except that 10.5 week-old C57BL/6J Lep ob/ob mice having genetic obesity characteristics available from ORIENTBIO were prepared, the compounds according to Examples 4 and 5 were administered to three C57BL/6J Lep ob/ob mice in an amount of 150 mg/kg, 150 mg/kg of 0.1% SLS was administered to each of three C57BL/6J Lep ob/ob mice as controls, and experiments were performed for a total of six days. Weight increase ratios, weight change, and intake amounts depending on administration time were measured and results are illustrated in FIG. 2 below. […]

NQO1 protein = NQO1 protein (Homo sapiens, UniProt P15559); assay: NQO1 activity measurement (cytochrome C reduction); assay type: biochemical
Method: An enzyme reaction solution included 25 mM Tris/HCl (pH 7.4), 0.14% bovine serum albumin, 200 μM NADH, 77 μM cytochrome C, and 5 ng of NQO1 protein. Enzymatic reaction was initiated by adding NADH and performed at 37° C. In this regard, a reaction rate was measured by observing absorbance, which was increased due to reduction of cytochrome C, at 550 nm for 10 minutes and NQO1 activity was represented as an amount of reduced cytochrome C [nmol cytochrome C reduced/min/μg protein].
Extinction coefficient for cytochrome C:21.1 mmol/L/cm=21.1 μmol/ml/cm

SMILES | NQO1 activity (5 μM, [nmol cytochrome C reduced/min/μg protein]) (NQO1 protein) | also measured
O=C1C(=O)c2oc(-c3ccccc3)nc2-c2ccccc21 [Example 27] | 241.9 nmol cytochrome C reduced/min/μg protein | weight increase ratio vs controls (FIG. 4) (C57BL/6J Lep ob/ob mice; 100 mg/kg): significantly decreased
COc1cccc2c1-c1oc(CN(C)C)nc1C(=O)C2=O [Example 11, 2-((dimethylamino)methyl)-9-methoxynaphtho[2,1-d]oxazole-4,5-dione] | 149.2 nmol cytochrome C reduced/min/μg protein | 
CC(C)(C)c1nc2c(o1)C(=O)C(=O)c1ccccc1-2 [Example 28, 2-tert-butylnaphtho[1,2-d]oxazole-4,5-dione] | 254.9 nmol cytochrome C reduced/min/μg protein | weight increase ratio vs controls (FIG. 3) (C57BL/6J Lep ob/ob mice; 100 mg/kg): significantly decreased
CC(C)(C)c1nc2c(o1)C(=O)C(=O)c1cc(N)ccc1-2 [Example 30, 7-amino-2-tert-butylnaphtho[1,2-d]oxazole-4,5-dione] | 213.0 nmol cytochrome C reduced/min/μg protein | weight increase ratio vs controls (FIG. 5) (C57BL/6J Lep ob/ob mice; 150 mg/kg): significantly decreased
CC(C)(C)c1nc2c(o1)C(=O)C(=O)c1cc(Cl)ccc1-2 [Example 31, 2-tert-butyl-7-chloronaphtho[1,2-d]oxazole-4,5-dione] | 220.3 nmol cytochrome C reduced/min/μg protein | 
CN(C)Cc1nc2c(o1)-c1ccccc1C(=O)C2=O [Example 5, 2-((dimethylamino)methyl)naphtho[2,1-d]oxazole-4,5-dione] | 259.5 nmol cytochrome C reduced/min/μg protein | weight increase ratio vs controls (FIG. 2) (C57BL/6J Lep ob/ob mice; 150 mg/kg): significantly decreased
